Assay results taken from PubChem BioAssay (Tox21).
The list shows a part of the results, in another mix than the full data. Results filed as inconclusive are left out. The source made the active and inactive calls. Unless noted, calls follow the shape of the dose curve; as a rule, active = well fitted curve in the direction sought with a large enough effect in the repeat runs; inconclusive = weak or mixed curves; inactive = no such curve, though single readings can be large; an effect the other way counts as inactive or inconclusive.

Amino acid sequences for entries named in this document (tags omitted).
UniProt P19793, whole entry: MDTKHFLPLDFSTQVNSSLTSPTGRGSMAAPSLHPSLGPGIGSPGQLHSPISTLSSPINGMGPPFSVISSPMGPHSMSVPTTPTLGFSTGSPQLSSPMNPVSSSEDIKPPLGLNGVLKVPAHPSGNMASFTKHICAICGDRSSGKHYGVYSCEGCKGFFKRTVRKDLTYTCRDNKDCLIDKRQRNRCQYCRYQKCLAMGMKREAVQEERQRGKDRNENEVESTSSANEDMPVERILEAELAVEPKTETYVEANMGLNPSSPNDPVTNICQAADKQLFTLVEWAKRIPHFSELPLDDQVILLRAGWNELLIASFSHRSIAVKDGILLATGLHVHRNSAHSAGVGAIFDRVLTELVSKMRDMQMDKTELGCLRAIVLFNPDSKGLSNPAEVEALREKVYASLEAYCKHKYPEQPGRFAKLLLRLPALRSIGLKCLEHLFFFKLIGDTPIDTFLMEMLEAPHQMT
UniProt Q96RI1, whole entry: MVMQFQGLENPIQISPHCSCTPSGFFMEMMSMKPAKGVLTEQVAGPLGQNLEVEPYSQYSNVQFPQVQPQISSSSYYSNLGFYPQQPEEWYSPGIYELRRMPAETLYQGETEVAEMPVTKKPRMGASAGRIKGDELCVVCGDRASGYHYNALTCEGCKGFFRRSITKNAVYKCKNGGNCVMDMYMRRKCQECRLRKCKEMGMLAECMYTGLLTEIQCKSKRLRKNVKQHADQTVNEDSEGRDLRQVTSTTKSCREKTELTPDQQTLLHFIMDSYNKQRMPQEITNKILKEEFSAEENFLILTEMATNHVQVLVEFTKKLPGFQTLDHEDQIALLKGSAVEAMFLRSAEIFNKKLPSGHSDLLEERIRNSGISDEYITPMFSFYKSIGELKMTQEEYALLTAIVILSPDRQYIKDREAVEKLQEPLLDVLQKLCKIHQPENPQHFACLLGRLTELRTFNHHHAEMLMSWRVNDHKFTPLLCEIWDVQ
UniProt P11473, whole entry: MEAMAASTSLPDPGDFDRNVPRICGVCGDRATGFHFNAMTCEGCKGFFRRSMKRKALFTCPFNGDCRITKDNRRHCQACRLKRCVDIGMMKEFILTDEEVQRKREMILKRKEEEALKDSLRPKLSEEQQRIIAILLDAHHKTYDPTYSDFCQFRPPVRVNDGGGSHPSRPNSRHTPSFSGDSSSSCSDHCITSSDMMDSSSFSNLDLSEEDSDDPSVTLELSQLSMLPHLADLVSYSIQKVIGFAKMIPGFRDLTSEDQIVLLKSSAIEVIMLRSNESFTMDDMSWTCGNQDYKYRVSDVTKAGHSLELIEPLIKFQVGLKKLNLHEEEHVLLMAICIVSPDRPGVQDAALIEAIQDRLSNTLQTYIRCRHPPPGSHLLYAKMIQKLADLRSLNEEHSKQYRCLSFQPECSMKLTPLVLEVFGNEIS

Legend:
[1] = qHTS assay to identify small molecule antagonists of the retinoid-related orphan receptor gamma (ROR-gamma) signaling pathway - cell viability counter screen (AID 1159520); details: Tet-on RORgamma CHO cells viability, ATP luminescence, 16 h; at 92.4 µM (top of the series) unless noted; also: % is scaled to controls: 0 for no effect and ±100 for the full control effect; nearly all actives have a fitted effect of over 50% in size
In short: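 Tet-on ROR gamma CHO cells were given compounds for 2 hr, then doxycycline hyclate at 1 uM final, and incubated 16 hr at 37 C. Viability was measured as ATP content by CellTiter-Glo luminescence.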

[2] = molecular target: Nuclear receptor ROR-gamma (Homo sapiens) (UniProt P51449); assay: qHTS assay to identify small molecule antagonists of the retinoid-related orphan receptor gamma (ROR-gamma) signaling pathway (AID 1159521;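 also: CHO cells with doxycycline inducible ROR-gamma driving an RORE luciferase reporter; top concentration of the series differs between compounds; % is scaled to controls: 0 for no effect and ±100 for the full control effect; nearly all actives have a fitted effect of over 50% in size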)
[3] = qHTS assay to identify small molecule agonists of the AP-1 signaling pathway - cell viability counter screen (AID 1159525; calls by dose curve; also: nearly all actives have a fitted effect of over 55% in size); details: ME-180 AP-1-bla cells viability, ATP luminescence, 5 h; at 76.8 µM (top of the series) unless noted
In short: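 AP-1-bla ME-180 cells in Opti-MEM with 0.5% dialyzed FBS, compound exposure 5 h at 37 C in 15-point titration. Viability read in the same wells as ATP content by CellTiter-Glo luminescence, normalised to tetra-n-octylammonium bromide and DMSO controls.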

[4] = qHTS assay to identify small molecule agonists of the AP-1 signaling pathway (AID 1159526; calls by dose curve; also: % is scaled to controls: 0 for no effect and ±100 for the full control effect); details: ME-180 (cervical carcinoma) AP-1-bla reporter, beta-lactamase FRET ratio, 5 h; at 76.8 µM (top of the series) unless noted
[5] = molecular target: Retinoic acid receptor RXR-alpha (Homo sapiens) (UniProt P19793); assay: qHTS assay to identify small molecule agonists of the RXR signaling pathway (AID 1159527; calls by dose curve; also: % is scaled to controls: 0 for no effect and ±100 for the full control effect; nearly all actives have a fitted effect of over 35% in size); details: HEK293T RXRa-UAS-bla, beta-lactamase ratio, 16 h; at 76.8 µM (top of the series) unless noted
In short: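 Compounds in DMSO were added to RXR-alpha-UAS-bla HEK 293T cells kept in 2% charcoal-stripped serum, and incubated 16 hr at 37 C with 5% CO2. Reporter signal came from a 2 hr B/G FRET substrate step.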

[6] = qHTS assay to identify small molecule agonists of the RXR signaling pathway - cell viability counter screen (AID 1159529); details: RXR-alpha-bla HEK293T viability, CellTiter-Glo, 16 h; at 76.8 µM (top of the series) unless noted; also: % is scaled to controls: 0 for no effect and ±100 for the full control effect; nearly all actives have a fitted effect of over 50% in size
In short: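 Counter screen: CellTiter-Glo luminescence. Cells: RXR-alpha-UAS-bla HEK 293T. Medium: 2% charcoal-stripped FBS. Treatment: 16 h, 37 C. Reagent incubation: 30 min, RT.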

[7] = qHTS assay to identify small molecule antagonists of the retinoid acid receptor (RAR) signaling pathway - cell viability counter screen (AID 1159551); details: C3RL4 cells viability, ATP luminescence (CellTiter-Glo), 6 h; at 92.4 µM (top of the series) unless noted; also: % is scaled to controls: 0 for no effect and ±100 for the full control effect; nearly all actives have a fitted effect of over 35% in size
In short: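 Luminescent ATP quantitation (CellTiter-Glo) gave cell viability in C3RL4 cells exposed to test chemicals for 6 h at 37 C alongside 1 uM final retinol.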

[8] = qHTS assay to identify small molecule antagonists of the retinoic acid receptor (RAR) signaling pathway (AID 1159552; also: % is scaled to controls: 0 for no effect and ±100 for the full control effect; nearly all actives have a fitted effect of over 50% in size); details: C3RL4 RARE luciferase reporter, retinol-stimulated, 6 h; at 92.4 µM (top of the series) unless noted
In short: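 Antagonism of retinol-induced RARE reporter activity was measured in C3RL4 cells. Exposure to compounds and 1 uM final retinol lasted 6 hr at 37 C, with luminescence as endpoint.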

[9] = molecular target: Bile acid receptor (Homo sapiens) (UniProt Q96RI1); assay: qHTS assay to identify small molecule antagonists of the farnesoid-X-receptor (FXR) signaling pathway (AID 743217; active = well fitted inhibition curve with a large enough effect in the signal ratio in the repeat runs, not every such curve was filed as active; the % refers to the signal ratio; also: % is scaled to controls: 0 for no effect and ±100 for the full control effect); details: HEK293T FXR-UAS-bla, beta-lactamase ratio, CDCA-stimulated, 16 h; at 62.6 µM (top of the series)
In short: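 HEK 293T FXR-UAS-bla, 5000 cells/well; compound + CDCA 50 uM final; 16 h, 37 °C; B/G FRET substrate 2 h RT; fluorescence.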

[10] = qHTS assay to identify small molecule agonists of the farnesoid-X-receptor (FXR) signaling pathway - cell viability counter screen (AID 743218); details: FXR-bla HEK293T viability, CellTiter-Glo luminescence, 16 h; at 62.6 µM (top of the series); also: % is scaled to controls: 0 for no effect and ±100 for the full control effect; nearly all actives have a fitted effect of over 45% in size
In short: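 HEK 293T FXR-bla cells; 5 h pre-incubation, 16 h compound exposure at 37 C; LiveBLAzer substrate 2 h RT, then CellTiter-Glo 30 min RT, luminescence.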

[11] = molecular target: Bile acid receptor (Homo sapiens) (UniProt Q96RI1); assay: qHTS assay to identify small molecule agonists of the farnesoid-X-receptor (FXR) signaling pathway (AID 743220; active = well fitted activation curve with a large enough effect in the signal ratio in the repeat runs, not every such curve was filed as active; the % refers to the signal ratio; also: % is scaled to controls: 0 for no effect and ±100 for the full control effect); details: HEK293T FXR-UAS-bla, beta-lactamase FRET ratio, 16 h; at 62.6 µM (top of the series)
[12] = qHTS assay to identify small molecule antagonists of the farnesoid-X-receptor (FXR) signaling pathway - cell viability counter screen (AID 743221; active = well fitted cell-killing curve with a large enough effect in the repeat runs, not every such curve was filed as active); details: FXR-bla HEK293T viability, CellTiter-Glo luminescence, 16 h; at 62.6 µM (top of the series)
In short: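 Cytotoxicity is taken from ATP luminescence (CellTiter-Glo, 30 min, room temperature) in FXR-bla HEK 293T cells previously incubated 16 h at 37 C with compound and chenodeoxycholic acid at 50 uM final.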

[13] = molecular target: Vitamin D3 receptor (Homo sapiens) (UniProt P11473); assay: qHTS assay to identify small molecule agonists of the vitamin D receptor (VDR) signaling pathway (AID 743222; calls by dose curve; also: % is scaled to controls: 0 for no effect and ±100 for the full control effect); details: HEK293T VDR-UAS-bla, beta-lactamase FRET ratio, 16 h; at 63.5 µM (top of the series)
In short: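 VDR-bla cells, 2,000/well; 4 h preincubation 37C; cpd (DMSO) 16 h; LiveBLAzer B/G substrate 2 h RT; fluorescence intensity read.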

[14] = molecular target: Vitamin D3 receptor (Homo sapiens) (UniProt P11473); assay: qHTS assay to identify small molecule antagonists of the vitamin D receptor (VDR) signaling pathway (AID 743223; active = well fitted inhibition curve with a large enough effect in the signal ratio in the repeat runs, not every such curve was filed as active; the % refers to the signal ratio; also: % is scaled to controls: 0 for no effect and ±100 for the full control effect); details: VDR-UAS-bla HEK293T, beta-lactamase FRET ratio, 16 h; at 61 µM (top of the series)
In short: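 Quantitative HTS in VDR-bla reporter cells stimulated with 1alpha,25-dihydroxyvitamin D3, 3 nM final. Compound exposure 16 h, 37C, 5% CO2. Read-out: beta-lactamase FRET substrate fluorescence, 2 h RT.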

[15] = qHTS assay to identify small molecule agonists of the vitamin D receptor (VDR) signaling pathway - cell viability counter screen (AID 743224); details: VDR-bla HEK293T viability, CellTiter-Glo luminescence, 16 h; at 62.6 µM (top of the series)
In short: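 Luminescence from CellTiter-Glo, read after 30 min at room temperature, reports viability of VDR-bla cells treated with compounds for 16 h at 37C in the wells used for the beta-lactamase FRET read.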

[16] = qHTS assay to identify small molecule antagonists of the vitamin D receptor (VDR) signaling pathway - cell viability counter screen (AID 743225); details: VDR-bla HEK293T viability, CellTiter-Glo luminescence, 16 h; at 61 µM (top of the series)
In short: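 Same-well multiplex: following 16 h treatment of HEK 293T cells carrying a UAS-driven beta-lactamase reporter with compound and agonist (3 nM final), and a 2 h FRET substrate step, CellTiter-Glo was added and luminescence read after 30 min.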

[17] = qHTS assay to identify small molecule agonists of the NFkB signaling pathway (AID 1159509; active = well fitted curve in the direction sought with a large enough effect in the signal ratio in the repeat runs, not every such curve was filed as active; the % refers to the signal ratio; also: % is scaled to controls: 0 for no effect and ±100 for the full control effect); details: NFkB-bla ME-180 cells, beta-lactamase FRET ratio, 5 h; at 61 µM (top of the series)
In short: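 NFkB-bla ME-180 cells carry a beta-lactamase reporter under an NF-kB response element. They were plated overnight, then exposed to compounds for 5 h at 37 C. Read-out is LiveBLAzer FRET after 1.5 hr at room temperature (405 nm excitation; 460/530 nm emission).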

[18] = qHTS assay to identify small molecule agonists of the NFkB signaling pathway - cell viability counter screen (AID 1159515; calls by dose curve; also: % is scaled to controls: 0 for no effect and ±100 for the full control effect; nearly all actives have a fitted effect of over 55% in size); details: NFkB-bla ME-180 viability, CellTiter-Glo luminescence, 5 h; at 61 µM (top of the series)
In short: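 Luminescence from CellTiter-Glo (30 min, room temperature) gives viability, measured in the same wells as the beta-lactamase reporter read. Cells were NFkB-bla ME-180, 2,000 per well, treated 5 hr with compounds.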

[19] = qHTS assay to identify small molecule agonists of the endoplasmic reticulum stress response signaling pathway (AID 1159516; active = well fitted activation curve with a large enough effect in the signal ratio in the repeat runs, not every such curve was filed as active; the % refers to the signal ratio; also: % is scaled to controls: 0 for no effect and ±100 for the full control effect); details: ESRE-bla HeLa, ER stress beta-lactamase reporter, 5 h; at 61 µM (top of the series)
In short: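 Read-out is beta-lactamase cleavage of a FRET substrate (405 nm excitation; 460 and 530 nm emissions) in ESRE-bla HeLa cells after a 5 hr compound exposure at 37 C. Substrate incubation ran 2 hr at room temperature.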

[20] = qHTS assay to identify small molecule agonists of the endoplasmic reticulum stress response signaling pathway - cell viability counter screen (AID 1159517; calls by dose curve); details: ESRE-bla HeLa viability, CellTiter-Glo luminescence, 5 h; at 61 µM (top of the series)
In short: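 ESRE-bla HeLa cells, 1,500 per well, seeded overnight then treated with compounds for 5 hr at 37 C. After the beta-lactamase read, viability in the same wells is measured by CellTiter-Glo luminescence after 30 min at room temperature.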

ClCCNCCCl
inactive: activity, negative = cytotoxicity [1] 0.624% | Potency [2] | viability change, negative = cytotoxic [3] -3.76% | activation [4] 1.28% | activation [5] -1.98% | activity change, negative = cytotoxicity [6] -0.294% | activity change, negative = cytotoxicity [7] -0.376% | activity, negative = inhibition [8] -6.02%

CCOC(=O)N1CCC(=O)CC1
inactive: activity change, negative = inhibition [9] 8.01% | viability change, negative = cytotoxic [10] 18.3% | activation [11] -0.394% | activity change, negative = cytotoxicity [12] 2.1% | activation [13] 11.2% | activity change, negative = inhibition [14] -4.99% | activity change, negative = cytotoxicity [15] 15.5% | viability change, negative = cytotoxic [16] 8.39% | activation [17] 0.362% | activity, negative = cytotoxic [18] 1.76% | activation [19] -0.956% | activity change, negative = cytotoxicity [20] 7.46% | activity, negative = cytotoxicity [1] 3.94% [at 42.5 µM] | viability change, negative = cytotoxic [3] 1.61% [at 35.3 µM] | activation [4] -3.14% [at 35.3 µM] | activation [5] 4.89% [at 35.3 µM] | activity change, negative = cytotoxicity [6] 3.24% [at 35.3 µM] | activity change, negative = cytotoxicity [7] 1.98% [at 42.5 µM] | activity, negative = inhibition [8] 4.56% [at 42.5 µM]
